# Reference: publication PMC12214610
# The entries are a selection whose mix differs from that of the whole data set.
# Target: Actin, alpha skeletal muscle (UniProt P68133)
substance,measurement,value
"Protein S100-A6, P06703",listed as a hit,yes
